# Source: PubChem BioAssay AID488969 (Vanderbilt High Throughput Screening Facility, 2010)
# By UniProt entry, the sequences of proteins in these tests, tags left out.
# UniProt P70579, whole entry: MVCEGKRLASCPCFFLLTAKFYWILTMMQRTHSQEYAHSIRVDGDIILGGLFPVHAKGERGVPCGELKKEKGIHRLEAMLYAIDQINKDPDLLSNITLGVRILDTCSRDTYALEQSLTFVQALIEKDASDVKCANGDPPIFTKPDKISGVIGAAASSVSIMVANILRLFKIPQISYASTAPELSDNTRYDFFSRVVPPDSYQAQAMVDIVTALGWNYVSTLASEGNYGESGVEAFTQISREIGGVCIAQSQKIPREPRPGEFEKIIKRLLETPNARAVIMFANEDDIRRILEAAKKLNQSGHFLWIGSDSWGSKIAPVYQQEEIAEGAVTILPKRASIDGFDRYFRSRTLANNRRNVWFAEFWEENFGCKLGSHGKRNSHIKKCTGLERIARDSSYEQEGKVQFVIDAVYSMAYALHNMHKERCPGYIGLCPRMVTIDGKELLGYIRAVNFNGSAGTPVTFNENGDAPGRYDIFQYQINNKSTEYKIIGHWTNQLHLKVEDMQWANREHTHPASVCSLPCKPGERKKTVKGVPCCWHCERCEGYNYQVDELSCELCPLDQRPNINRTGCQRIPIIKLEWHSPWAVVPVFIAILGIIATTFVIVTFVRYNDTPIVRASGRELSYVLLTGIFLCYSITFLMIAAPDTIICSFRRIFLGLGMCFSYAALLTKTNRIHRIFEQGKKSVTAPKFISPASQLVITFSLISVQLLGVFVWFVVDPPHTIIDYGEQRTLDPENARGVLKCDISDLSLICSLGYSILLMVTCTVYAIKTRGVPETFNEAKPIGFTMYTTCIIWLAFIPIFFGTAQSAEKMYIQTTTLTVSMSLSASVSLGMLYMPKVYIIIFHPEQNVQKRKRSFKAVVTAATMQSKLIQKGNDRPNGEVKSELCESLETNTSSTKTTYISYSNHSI
# The list shows a part of the results, in another mix than the full data.
# Molecular target: Metabotropic glutamate receptor 8 (Rattus norvegicus) (UniProt P70579)
# Experiment: rat mGluR8 modulators via GIRK flux, primary screen, cell-based, thallium flux, HTS (AID 488969)
# Settings: HEK293 rat mGluR8, GIRK (G protein-gated inwardly rectifying potassium channel) thallium flux, FluoZin2; at 10 µM; stronger effect = higher value; submaximal glutamate (EC20) added with thallium
row,Structure (SMILES),z-score
1,c1ccc(CN2CCC(Nc3ccccc3)CC2)cc1,0.0633
2,N/C(=N\O)c1c(N)no[n+]1[O-],0.312
3,CCOc1ncccc1C(=O)NCC1(N2CCOCC2)CCCCC1,-0.175
4,COc1ccc(NC2CCN(CCc3ccccc3)CC2)c(OC)c1,0.00491
5,O=C(OC1CN2CCC1CC2)C1c2ccccc2Oc2ccccc21 (stereo not given),0.958
6,O=C(NCC1(N2CCOCC2)CCCCC1)c1cc2ccccc2o1,-0.0504
7,CN1CCC(Nc2cccc(F)c2)CC1,-0.174
8,O=C(NCC1(N2CCOCC2)CCCCC1)c1cc(=O)[nH]c2ccccc12,-0.0753
9,CN1CCN(CCOC(=O)C(O)(c2ccccc2)c2ccccc2)CC1,-0.0103
10,N#CC1(Nc2ccccc2)CCN(CCc2ccccc2)CC1,-0.444
